Reference: the OPERA property sets (Mansouri et al. 2018)

CN(CC(F)(F)F)Oc1c([N+](=O)[O-])cc([N+](=O)[O-])cc1[N+](=O)[O-]
logP: 1.37

O=[N+]([O-])c1cc([N+](=O)[O-])c(ONCC(F)(F)F)c([N+](=O)[O-])c1
logP: 1.39

CCNOc1c([N+](=O)[O-])cc([N+](=O)[O-])cc1[N+](=O)[O-]
logP: 1.03

CN(C)Oc1c([N+](=O)[O-])cc([N+](=O)[O-])cc1[N+](=O)[O-]
logP: 0.76

CC(C)NOc1c([N+](=O)[O-])cc([N+](=O)[O-])cc1[N+](=O)[O-]
logP: 1.37

CCCNOc1c([N+](=O)[O-])cc([N+](=O)[O-])cc1[N+](=O)[O-]
logP: 1.5
